From patent US20220135538A1, “P300/CBP HAT INHIBITORS AND METHODS FOR THEIR USE” (Constellation Pharmaceuticals, Inc., priority 2019, published 2022)

Chains of the proteins cited; added tags and fusions are not shown. Residues count along the entry.
UniProt Q09472, 1287-1666 limits assumed: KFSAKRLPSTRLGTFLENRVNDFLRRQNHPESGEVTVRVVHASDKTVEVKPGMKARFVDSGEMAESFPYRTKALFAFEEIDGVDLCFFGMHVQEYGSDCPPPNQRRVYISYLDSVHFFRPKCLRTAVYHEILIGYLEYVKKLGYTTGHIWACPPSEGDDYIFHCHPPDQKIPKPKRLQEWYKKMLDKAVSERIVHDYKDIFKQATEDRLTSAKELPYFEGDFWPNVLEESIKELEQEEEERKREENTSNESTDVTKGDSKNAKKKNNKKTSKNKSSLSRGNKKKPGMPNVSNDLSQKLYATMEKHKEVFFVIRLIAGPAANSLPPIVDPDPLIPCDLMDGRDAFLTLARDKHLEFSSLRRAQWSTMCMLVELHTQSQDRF
UniProt Q09472, whole entry: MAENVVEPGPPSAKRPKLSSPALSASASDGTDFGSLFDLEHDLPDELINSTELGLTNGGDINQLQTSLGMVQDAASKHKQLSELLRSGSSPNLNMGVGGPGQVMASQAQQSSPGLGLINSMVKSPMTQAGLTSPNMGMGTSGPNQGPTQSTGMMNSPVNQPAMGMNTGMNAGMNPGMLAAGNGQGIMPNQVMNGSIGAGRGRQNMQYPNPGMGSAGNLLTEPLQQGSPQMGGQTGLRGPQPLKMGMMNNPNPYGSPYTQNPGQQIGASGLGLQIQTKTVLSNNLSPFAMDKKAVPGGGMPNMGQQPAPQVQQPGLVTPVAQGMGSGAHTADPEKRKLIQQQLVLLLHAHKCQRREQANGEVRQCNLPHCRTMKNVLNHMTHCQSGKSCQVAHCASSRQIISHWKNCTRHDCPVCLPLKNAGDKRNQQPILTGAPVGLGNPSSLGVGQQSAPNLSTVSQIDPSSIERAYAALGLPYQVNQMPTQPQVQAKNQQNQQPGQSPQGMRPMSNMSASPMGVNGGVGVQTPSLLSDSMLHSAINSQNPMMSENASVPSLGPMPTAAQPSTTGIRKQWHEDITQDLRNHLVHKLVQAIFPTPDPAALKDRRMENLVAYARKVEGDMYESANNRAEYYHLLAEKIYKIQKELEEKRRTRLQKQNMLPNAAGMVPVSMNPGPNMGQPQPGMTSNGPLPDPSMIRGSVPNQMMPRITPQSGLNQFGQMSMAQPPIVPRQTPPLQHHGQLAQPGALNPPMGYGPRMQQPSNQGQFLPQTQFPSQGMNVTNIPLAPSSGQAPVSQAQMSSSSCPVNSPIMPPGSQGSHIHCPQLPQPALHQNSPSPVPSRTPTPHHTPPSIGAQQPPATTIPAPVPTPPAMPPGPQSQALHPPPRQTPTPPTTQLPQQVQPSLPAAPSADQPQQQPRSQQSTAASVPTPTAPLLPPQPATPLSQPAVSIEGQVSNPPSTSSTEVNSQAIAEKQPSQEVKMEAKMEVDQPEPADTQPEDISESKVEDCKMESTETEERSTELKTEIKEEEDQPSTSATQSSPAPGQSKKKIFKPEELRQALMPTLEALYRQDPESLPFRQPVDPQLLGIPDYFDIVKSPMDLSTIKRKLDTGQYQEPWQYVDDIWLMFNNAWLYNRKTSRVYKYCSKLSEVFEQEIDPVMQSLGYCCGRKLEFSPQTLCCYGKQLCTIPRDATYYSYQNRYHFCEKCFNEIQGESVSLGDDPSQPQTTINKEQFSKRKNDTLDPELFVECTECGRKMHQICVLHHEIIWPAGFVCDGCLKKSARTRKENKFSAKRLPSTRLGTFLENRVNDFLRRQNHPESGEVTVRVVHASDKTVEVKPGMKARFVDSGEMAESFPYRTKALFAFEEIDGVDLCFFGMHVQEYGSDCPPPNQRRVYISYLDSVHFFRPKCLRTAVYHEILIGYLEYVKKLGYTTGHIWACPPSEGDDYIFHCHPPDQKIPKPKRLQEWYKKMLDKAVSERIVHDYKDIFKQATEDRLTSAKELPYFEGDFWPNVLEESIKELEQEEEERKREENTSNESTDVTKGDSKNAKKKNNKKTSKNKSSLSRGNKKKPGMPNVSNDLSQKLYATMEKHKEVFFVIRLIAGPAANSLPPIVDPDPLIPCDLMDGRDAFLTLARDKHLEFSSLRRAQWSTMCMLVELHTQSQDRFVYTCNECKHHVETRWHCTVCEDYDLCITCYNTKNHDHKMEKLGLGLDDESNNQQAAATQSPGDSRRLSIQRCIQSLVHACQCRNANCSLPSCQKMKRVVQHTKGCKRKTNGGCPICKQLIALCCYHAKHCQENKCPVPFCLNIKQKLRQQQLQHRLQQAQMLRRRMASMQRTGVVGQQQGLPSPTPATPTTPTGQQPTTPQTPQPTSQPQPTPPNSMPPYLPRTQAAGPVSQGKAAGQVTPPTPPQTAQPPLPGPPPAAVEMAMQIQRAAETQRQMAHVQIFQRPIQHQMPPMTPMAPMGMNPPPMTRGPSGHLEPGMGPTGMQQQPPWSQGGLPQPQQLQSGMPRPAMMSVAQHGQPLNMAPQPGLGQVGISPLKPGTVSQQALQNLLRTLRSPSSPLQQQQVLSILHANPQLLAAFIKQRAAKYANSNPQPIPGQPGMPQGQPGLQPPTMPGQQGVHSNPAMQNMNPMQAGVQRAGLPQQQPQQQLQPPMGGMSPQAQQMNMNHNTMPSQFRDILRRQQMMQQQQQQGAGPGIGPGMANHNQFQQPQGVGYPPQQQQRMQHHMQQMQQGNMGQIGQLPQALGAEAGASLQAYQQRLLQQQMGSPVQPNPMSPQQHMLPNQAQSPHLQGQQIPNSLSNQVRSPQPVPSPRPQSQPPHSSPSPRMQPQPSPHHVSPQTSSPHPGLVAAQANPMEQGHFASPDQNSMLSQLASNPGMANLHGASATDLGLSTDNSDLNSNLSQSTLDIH

Experiments:
[1] = molecular target: p300 HAT domain (residues 1287-1666) (Homo sapiens, UniProt Q09472); experiment: P300 HAT SPA assay (scintillation proximity, acetylation of biotinylated H3(1-21) peptide); details: read-out: P300 HAT SPA IC50; 6 nM p300-HAT domain; average of at least 2 replicate titrations
Description: The activity of the compounds described herein as p300/CBP HAT inhibitors may be readily determined using a scintillation proximity assay (SPA) methodology (Udenfriend, S.; Gerber, L.; Nelson, N. Scintillation Proximity Assay: A Sensitive and Continuous Isotopic Method for Monitoring Ligand/Receptor and Antigen/Antibody Interactions. Anal. Biochem. 1987, 161, 494-500).
In a typical experiment the p300 HAT inhibitory activity of the compounds described herein was determined in accordance with the following experimental method.
The p300 HAT domain (residues 1287-1666) was expressed and purified with an N-terminal His tag from Escherichia coli cells. The expressed protein was purified by Ni2+affinity, followed by anion exchange chromatography. Appropriate fractions were pooled and buffer exchanged into 20 mM Hepes pH 7.5, 150 mM NaCl, and 1 mM TCEP.
(§1) Compounds of interest solubilized in DMSO were stamped in a Greiner black 384-well plate in a 10-point duplicate dose response using an Echo 550 (Labcyte). p300-HAT domain purified in-house (aa 1287-1666) was diluted to 6 nM in reaction buffer (50 mM Tris pH 8.0, 100 mM NaCl, 1 mM DTT, 0.069 mM Brij-35, 0.1 mM EDTA, 0.1 mg/mL BSA), combined with 4.14 μM AcCoA (Sigma-Aldrich) and 0.46 μM ^3H-AcCoA (PerkinElmer), and 12.5 μL added to each well and incubated for 30 min at RT. Reactions were initiated with 12.5 μL 2 μM biotinylated H3(1-21) peptide (New England Peptide) and run for 1 hr at RT, then quenched with 20 μL stop solution (200 mM Tris pH 8.0, 200 mM EDTA, 2M NaCl, 160 μM anacardic acid). 35 μL of the reaction volume was transferred to a 384-well streptavidin FlashPlate (PerkinElmer) using a Bravo liquid handler (Velocity 11) and incubated for 1.5 hr at RT. Plates were aspirated, washed with 95 μL wash buffer (15 mM Tris pH 8.5, 0.069 μM Brij-35), aspirated, sealed, and scintillation counts read on a Topcount (PerkinElmer). Data were analyzed in Genedata to determine inhibitor IC50 values.

[2] = molecular target: full length p300 (Homo sapiens, UniProt Q09472); experiment: Full length p300 SPA assay; details: read-out: FL P300 IC50; 6 nM purified full length p300
Description: as §1
The full length p300 SPA assay was run following the same protocol as p300 HAT SPA assay, but used 6 nM purified full length p300 (purchased from Active Motif) in place of the purified p300-HAT domain.

[3] = system: acetylation of chromatin at H3K18 in HCT-116 cells; experiment: H3K18Ac MSD cellular assay; details: read-out: H3K18Ac MSD EC50, 2 hr treatment
Description: Select compounds were also evaluated in a H3K18Ac MSD cellular assay that measures the ability of compounds to inhibit the acetylation of chromatin at H3K18, a process catalyzed by p300 and CBP. In a typical experiment the p300 HAT inhibitory activity inside cells of the compounds described herein was determined in accordance with the following experimental method. 20 k HCT-116 cells per well are plated in 75 μL RPMI+10% FBS media the night before treatment. Compounds plated in DMSO at 4× final concentration are resuspended in 30 μL RPMI+10% FBS, then 25 μL is combined with corresponding wells containing cells. Treated cells are incubated for 2 hr at 37° C., then lysed in 500 μL final volume and frozen at −80° C. MSD plates (Meso Scale Discovery) are coated overnight at 4° C. with 60 μL 1:500 α-total histone antibody (Millipore MAB3422) in PBS. Plates are then blocked with 5% BSA in TBST shaking at RT for 1 hr, washed, and 30 μL lysate added to each well for 2 hr shaking at RT. Plates are washed and 25 μL 1:216 α-H3K18ac antibody (CST 9675) in PBS added, then incubated for 1 hr shaking at RT. […] Plates are washed once more, then 150 μL 1× Read Buffer (MSD #R92TD-3) is added to all wells and read on MSD SECTOR Imager 2400 using the conventional read setup.

IC50 [2] [nM] | EC50 [3] [nM] | Structure (SMILES) | IC50 [1] [nM]
 |  | C[C@H](CNC(C(=O)Nc1ccc(OC2CNC2)cn1)c1ccccc1)c1ccc(C#N)cc1 (single isomer, unassigned) [26 Isomer 1] | 650
1.49 | 182 | C[C@H](CNC(C(=O)Nc1ccc(OC2CNC2)cn1)c1ccccc1)c1ccc(C#N)cc1 (single isomer, unassigned) [26 Isomer 2] | 14
 |  | C[C@H](CNC(C(=O)Nc1ccc(OC2CN(C(=O)CO)C2)cn1)c1ccccc1)c1ccc(C#N)cc1 (single isomer, unassigned) [27 Isomer 1] | 247
 |  | C[C@H](CNC(C(=O)Nc1ccc(OC2CN(C(=O)CO)C2)cn1)c1ccccc1)c1ccc(C#N)cc1 (single isomer, unassigned) [27 Isomer 2] | > 1000
